pIC50: −log10 of the molar value.
What was measured:
Assay type in all cases: biochemical
DPP-II = DPP-II (Homo sapiens (Human), UniProt Q9UHL4); test: Measurement of DPP-II inhibitory activity (Gly-Pro-AFC); conditions: read-out: DPP-II; 100 μM Gly-Pro-AFC, 50 mM acetic acid pH 4.5, room temperature
DPP-VIII = DPP-VIII (Homo sapiens (Human), UniProt Q6V1X1); test: Measurement of DPP-VIII inhibitory activity (Gly-Pro-AFC); conditions: read-out: DPP-VIII; 100 μM Gly-Pro-AFC, 50 mM HEPES pH 7.5, room temperature
DPP-IX = DPP-IX (Homo sapiens (Human), UniProt Q86TI2); test: Measurement of DPP-IX inhibitory activity (Gly-Pro-AFC); conditions: read-out: DPP-IX; 100 μM Gly-Pro-AFC, 50 mM HEPES pH 7.5, room temperature

Sequences of proteins named here, by UniProt entry; tags and fusion partners are left off.
UniProt Q6V1X1, whole entry: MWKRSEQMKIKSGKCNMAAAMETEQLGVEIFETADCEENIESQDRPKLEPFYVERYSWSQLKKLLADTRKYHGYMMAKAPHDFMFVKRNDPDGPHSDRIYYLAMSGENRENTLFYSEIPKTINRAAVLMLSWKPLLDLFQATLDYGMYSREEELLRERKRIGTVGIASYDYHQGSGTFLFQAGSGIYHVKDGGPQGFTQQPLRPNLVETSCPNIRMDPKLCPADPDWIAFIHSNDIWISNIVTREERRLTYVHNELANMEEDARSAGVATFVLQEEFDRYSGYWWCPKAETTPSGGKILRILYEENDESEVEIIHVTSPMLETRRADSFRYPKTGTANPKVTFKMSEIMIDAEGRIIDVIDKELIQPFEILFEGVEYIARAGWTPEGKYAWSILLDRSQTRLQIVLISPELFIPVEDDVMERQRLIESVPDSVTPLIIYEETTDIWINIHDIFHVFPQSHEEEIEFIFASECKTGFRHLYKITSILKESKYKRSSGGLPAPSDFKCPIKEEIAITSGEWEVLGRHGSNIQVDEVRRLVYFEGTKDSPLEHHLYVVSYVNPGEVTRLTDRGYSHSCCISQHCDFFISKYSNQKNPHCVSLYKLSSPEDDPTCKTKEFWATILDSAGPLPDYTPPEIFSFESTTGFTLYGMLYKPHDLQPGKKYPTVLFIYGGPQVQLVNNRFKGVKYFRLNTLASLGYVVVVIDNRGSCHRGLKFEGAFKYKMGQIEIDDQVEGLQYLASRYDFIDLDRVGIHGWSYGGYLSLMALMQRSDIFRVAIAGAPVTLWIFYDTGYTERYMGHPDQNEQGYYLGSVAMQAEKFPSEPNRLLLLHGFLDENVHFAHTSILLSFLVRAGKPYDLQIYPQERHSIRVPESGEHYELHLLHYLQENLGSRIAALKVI
UniProt Q86TI2, whole entry: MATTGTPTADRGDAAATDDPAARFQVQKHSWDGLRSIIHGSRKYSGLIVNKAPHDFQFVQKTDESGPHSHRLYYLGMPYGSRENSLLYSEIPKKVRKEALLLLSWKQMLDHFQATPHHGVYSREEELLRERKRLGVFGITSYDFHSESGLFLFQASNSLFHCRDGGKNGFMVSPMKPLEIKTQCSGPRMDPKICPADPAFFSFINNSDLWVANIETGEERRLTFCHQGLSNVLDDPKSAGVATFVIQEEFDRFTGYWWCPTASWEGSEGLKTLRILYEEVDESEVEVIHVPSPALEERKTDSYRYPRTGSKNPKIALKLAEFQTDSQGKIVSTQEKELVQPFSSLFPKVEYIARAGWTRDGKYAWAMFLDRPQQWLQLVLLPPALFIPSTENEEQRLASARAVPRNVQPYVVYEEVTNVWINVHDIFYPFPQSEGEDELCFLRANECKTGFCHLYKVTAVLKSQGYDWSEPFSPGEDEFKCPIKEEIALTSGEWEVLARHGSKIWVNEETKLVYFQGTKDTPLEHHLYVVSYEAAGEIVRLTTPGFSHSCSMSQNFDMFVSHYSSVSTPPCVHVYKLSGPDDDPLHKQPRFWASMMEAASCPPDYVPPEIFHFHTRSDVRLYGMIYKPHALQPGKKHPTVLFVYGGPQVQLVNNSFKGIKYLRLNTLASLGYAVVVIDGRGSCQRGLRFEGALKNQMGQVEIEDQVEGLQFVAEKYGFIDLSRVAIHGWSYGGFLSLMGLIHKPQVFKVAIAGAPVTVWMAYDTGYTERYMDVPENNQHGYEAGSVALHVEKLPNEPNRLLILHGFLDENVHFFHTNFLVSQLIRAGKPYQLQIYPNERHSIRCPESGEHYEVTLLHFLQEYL

N[C@@H](CC(=O)N1CCc2c(nc(C(F)(F)F)nc2C(F)(F)F)C1)CN1CC(F)(F)CCC1=O
pIC50 (DPP-II): < 3.40
pIC50 (DPP-VIII): 4.82
pIC50 (DPP-IX): 3.91

From patent US8470836B2, “Dipeptidyl peptidase-IV inhibiting compounds, methods of preparing the same, and pharmaceutical compositions containing the same as active agent” (LG Life Sciences, Ltd., priority 2007, dated 2013)
